Experimental data published in patent US12649008B2, “Peptide receptor radionuclide therapy” (The Regents of the University of California, priority 2020, dated 2026).
Where two headings read alike, the source gives them in different places.

Columns and labels:
mouse serum proteins = assay: Serum protein (albumin) binding by ultrafiltration, mouse serum; type: in vitro ADME; conditions: 37° C.
Procedure: (§1) The devices were pre-treated with PBS containing Tween 20 (5% v/v) as disclosed in Hausner 2007, followed by triplicate rinses with PBS. An aliquot of each formulated radiotracer in PBS (≤25 μL, 20-60 KBq) was thoroughly mixed with 0.5 mL serum at 37° C. in a microfuge tube. The mixture was incubated at 37° C. for 5 min and an aliquot (50 μL) of was transferred to a tube for γ-counting. The remaining sample was transferred to a Centrifree Ultrafiltration device and centrifuged for 40 min. at 1500×g at ambient temperature (20-24° C.). An aliquot (50 μL) of the filtrate was transferred to a tube for γ-counting. For each radiotracer, a blank was run using 0.5 mL PBS/Tween 20 (5% v/v) instead of serum (n=4) to determine non-specific binding. Following γ-counting, the protein-bound radioactivity was calculated by subtracting the counts measured in the filtrate aliquot (i.e., not protein bound) from the counts in the corresponding serum aliquot. The data are expressed as mean±standard deviation of fraction of radioactivity bound to protein after subtraction of non-specific binding determined in the blank.

human serum proteins = assay: Serum protein (albumin) binding by ultrafiltration, human serum; type: in vitro ADME; conditions: 37° C.
Procedure: as §1

[1] = In vitro serum stability, human serum; type: in vitro ADME; conditions: 24 h, 37° C., read-out: stability in human serum (intact radiotracer)
Procedure: Mouse or human serum (500 μl, both purchased from Millipore Sigma) was combined with an aliquot of the formulated radiotracer (100-200 μCi) and incubated at 37° C. Aliquots (100-200 μl) were drawn for analysis at 1 and 2 h post-incubation for the ^68Ga radiotracers and 1 and 24 h post-incubation for ^177Lu radiotracers, mixed with absolute ethanol (500 μl, 4° C.), and centrifuged (2300× g, 3 min) to precipitate out serum proteins. The supernatant was diluted with HPLC Solvent A and analyzed by radio-HPLC to determine the fraction of intact radiotracer as disclosed in Hausner et al., “In vitro and in vivo evaluation of the effects of aluminum [^18F]fluoride radiolabeling on an integrin αvβ6-specific peptide” Nuclear medicine and biology.

[2] = Biodistribution in mice bearing BxPC-3 tumors; type: in vivo; conditions: female, nu/nu nude, mouse, iv, total radioactivity; for tissue uptake at 1 h: 1 h p.i.; for tissue uptake at 24 h: 24 h p.i.; for tissue uptake at 48 h: 48 h p.i.; for tissue uptake at 72 h: 72 h p.i.; for tissue uptake at 4 h: 4 h p.i.
Procedure: (§2) Female nu/nu nude mice (6-8 weeks old) were purchased from Charles River Laboratories (Wilmington, MA, USA) and handled according to the UC Davis Institutional Animal Care and Use Committee. BxPC-3 cells (5×10^6) in 100 μl 1:1 GFR-Matrigel: serum-free RPMI were implanted subcutaneously into the left shoulder flank and allowed to grow for approximately 2 weeks (therapy study) and 3 weeks (0.5-1 cm in diameter, for imaging and biodistribution studies). All cells were evaluated with flow cytometry before injection to confirm integrin expression levels. Food and water were available ad libitum.
(§3) For blocking studies, respective non-chelated cold peptide (30 mg/kg, 10 mg/mL (DOTA-5G) and 48 mg/kg, 16 mg/mL (DOTA-ABM-5G) solution in PBS) was injected 10 min. before the formulated radiotracer. At each time point, the mice (n=3/time point/radiotracer) were anesthetized and sacrificed. The tissues were collected, rinsed with PBS, and the radioactivity of each measured with a gamma counter. Radioactivity concentrations were calibrated, decay-corrected, and expressed as percent of injected dose per gram of tissue (% ID/g).

BxPC-3 (αvβ6 (+)) tumors [3] = assay: Biodistribution in mice bearing BxPC-3 tumors; type: in vivo
Procedure: as §2, §3

[4] = Blocking study (cold peptide 10 min before radiotracer), biodistribution; type: in vivo, mice; conditions: female, nu/nu nude, mouse, BxPC-3 tumor, iv, total radioactivity; 1 h p.i.; DOTA-5G 30 mg/kg 10 min before
Procedure: as §2, §3

BxPC-3 (αvβ6 (+)) tumors [5] = assay: as above; type: in vivo, mice; conditions: 1 h p.i.
Procedure: as §2, §3

[6] = BxPC-3 tumor, read-out: uptake BxPC-3 tumor
[7] = bladder, read-out: uptake Bladder
[8] = gall bladder, read-out: uptake Gall Bladder
[9] = kidneys, read-out: uptake Kidneys
[10] = large intestines, read-out: uptake Lg Intestines
[11] = muscle, read-out: uptake Muscle
[12] = pancreas, read-out: uptake Pancreas
[13] = small intestines, read-out: uptake Sm Intestines
[14] = spleen, read-out: uptake Spleen
[15] = stomach, read-out: uptake Stomach

In the case of CC(C)C[C@H](NC(=O)[C@H](CC(=O)O)NC(=O)CNC(=O)[C@H](CCCNC(=N)N)NC(=O)[C@H](CC(C)C)NC(=O)[C@H](CC(N)=O)NC(=O)[C@@H]1CCCN1C(=O)[C@@H](NC(=O)CNC(=O)[C@H](CC(N)=O)NC(=O)CNC(=O)CCOCCOCCOCCOCCOCCOCCOCCOCCOCCOCCOCCOCCOCCOCCOCCOCCOCCOCCOCCOCCOCCOCCOCCOCCOCCOCCOCCOCCNC(=O)CN1CCN(CC(=O)O)CCN(CC(=O)O)CCN(CC(=O)O)CC1)C(C)C)C(=O)N[C@@H](CCC(N)=O)C(=O)N[C@H](C(=O)N[C@@H](CC(C)C)C(=O)NCC(=O)N[C@@H](CCC(N)=O)C(=O)N[C@@H](CCCNC(=N)N)C(=O)N[C@H](C(=O)NCC(=O)N[C@@H](CCCNC(=N)N)C(=O)N[C@H](C(=O)NCCOCCOCCOCCOCCOCCOCCOCCOCCOCCOCCOCCOCCOCCOCCOCCOCCOCCOCCOCCOCCOCCOCCOCCOCCOCCOCCOCCOCCC(N)=O)[C@@H](C)O)C(C)C)C(C)C [[^177Lu]Lu DOTA-5G, metal not drawn], the “albumin (serum protein) binding” value (mouse serum proteins) is reported as 18.1±0.2%, the “albumin (serum protein) binding” value (human serum proteins) is reported as 16.2±0.4% and the remaining at 24 h [1] is reported as no less than 97%. For the same compound, the tissue uptake at 1 h [2, 6] was 1.23 ± 0.19 %ID/g, the tissue uptake at 24 h [2, 6] was 1.05 ± 0.11 %ID/g and the tissue uptake at 48 h [2, 6] was 1.07 ± 0.45 %ID/g. It also gave a tissue uptake at 72 h [2, 6] of 0.81 ± 0.16 %ID/g, a tissue uptake at 1 h [2, 7] of 3.83 ± 2.75 %ID/g and a tissue uptake at 24 h [2, 7] of 0.93 ± 0.29 %ID/g. The tissue uptake at 48 h [2, 7] was 0.89 ± 0.17 %ID/g, the tissue uptake at 72 h [2, 7] was 0.71 ± 0.24 %ID/g and the tissue uptake at 1 h ([2]; blood, read-out: uptake Blood) was 0.1 ± 0.03 %ID/g. It also gave a tissue uptake at 1 h ([2]; bone, read-out: uptake Bone) of 0.17 ± 0.13 %ID/g, a tissue uptake at 24 h ([2]; bone, read-out: uptake Bone) of 0.11 ± 0.02 %ID/g and a tissue uptake at 48 h ([2]; bone, read-out: uptake Bone) of 0.09 ± 0.02 %ID/g. For the same compound, the tissue uptake at 72 h ([2]; bone, read-out: uptake Bone) was 0.06 ± 0.01 %ID/g, the tissue uptake at 1 h ([2]; brain, read-out: uptake Brain) was 0.01 %ID/g and the tissue uptake at 24 h ([2]; brain, read-out: uptake Brain) was 0.01 %ID/g. The tissue uptake at 48 h ([2]; brain, read-out: uptake Brain) was 0.01 %ID/g, the tissue uptake at 72 h ([2]; brain, read-out: uptake Brain) was 0.01 %ID/g and the tissue uptake at 1 h [2, 8] was 0.33 ± 0.29 %ID/g. It also gave a tissue uptake at 24 h [2, 8] of 0.18 ± 0.17 %ID/g, a tissue uptake at 48 h [2, 8] of 0.74 ± 0.97 %ID/g and a tissue uptake at 72 h [2, 8] of 0.34 ± 0.49 %ID/g. For the same compound, the tissue uptake at 1 h ([2]; heart, read-out: uptake Heart) was 0.35 ± 0.04 %ID/g, the tissue uptake at 24 h ([2]; heart, read-out: uptake Heart) was 0.14 ± 0.01 %ID/g and the tissue uptake at 48 h ([2]; heart, read-out: uptake Heart) was 0.13 ± 0.03 %ID/g. For the same compound, the tissue uptake at 72 h ([2]; heart, read-out: uptake Heart) was 0.1 ± 0.03 %ID/g, the tissue uptake at 1 h [2, 9] was 12.2 ± 3.91 %ID/g and the tissue uptake at 24 h [2, 9] was 9.54 ± 2.33 %ID/g. The tissue uptake at 48 h [2, 9] was 7.52 ± 2.65 %ID/g, the tissue uptake at 72 h [2, 9] was 6.16 ± 1.45 %ID/g and the tissue uptake at 1 h [2, 10] was 3.98 ± 0.62 %ID/g. It also gave a tissue uptake at 4 h [2, 10] of less than 4 %ID/g, a tissue uptake at 24 h [2, 10] of 1.95 ± 0.22 %ID/g and a tissue uptake at 48 h [2, 10] of 1.31 ± 0.4 %ID/g. For the same compound, the tissue uptake at 72 h [2, 10] was 0.46 ± 0.03 %ID/g, the tissue uptake at 1 h ([2]; liver, read-out: uptake Liver) was 0.1 ± 0.03 %ID/g and the tissue uptake at 4 h ([2]; liver, read-out: uptake Liver) was less than 0.2 %ID/g. It also gave a tissue uptake at 24 h ([2]; liver, read-out: uptake Liver) of 0.06 ± 0.01 %ID/g, a tissue uptake at 72 h ([2]; liver, read-out: uptake Liver) of 0.04 %ID/g and a tissue uptake at 1 h ([2]; lung, read-out: uptake Lung) of 1.19 ± 0.18 %ID/g. For the same compound, the tissue uptake at 24 h ([2]; lung, read-out: uptake Lung) was 0.53 ± 0.06 %ID/g, the tissue uptake at 48 h ([2]; lung, read-out: uptake Lung) was 0.36 ± 0.09 %ID/g and the tissue uptake at 72 h ([2]; lung, read-out: uptake Lung) was 0.27 ± 0.05 %ID/g. The tissue uptake at 1 h [2, 11] was 0.43 ± 0.05 %ID/g, the tissue uptake at 24 h [2, 11] was 0.18 ± 0.05 %ID/g and the tissue uptake at 48 h [2, 11] was 0.13 ± 0.01 %ID/g. It also gave a tissue uptake at 72 h [2, 11] of 0.11 ± 0.07 %ID/g, a tissue uptake at 1 h [2, 12] of 0.41 ± 0.38 %ID/g and a tissue uptake at 24 h [2, 12] of 0.16 ± 0.03 %ID/g. It also gave a tissue uptake at 48 h [2, 12] of 0.13 ± 0.04 %ID/g, a tissue uptake at 72 h [2, 12] of 0.09 %ID/g and a tissue uptake at 1 h ([2]; skin, read-out: uptake Skin) of 0.75 ± 0.08 %ID/g. It also gave a tissue uptake at 24 h ([2]; skin, read-out: uptake Skin) of 0.58 ± 0.09 %ID/g, a tissue uptake at 48 h ([2]; skin, read-out: uptake Skin) of 0.41 ± 0.11 %ID/g and a tissue uptake at 72 h ([2]; skin, read-out: uptake Skin) of 0.23 ± 0.06 %ID/g. It also gave a tissue uptake at 1 h [2, 13] of 2.18 ± 0.33 %ID/g, a tissue uptake at 24 h [2, 13] of 0.82 ± 0.05 %ID/g and a tissue uptake at 48 h [2, 13] of 0.4 ± 0.06 %ID/g. It also gave a tissue uptake at 72 h [2, 13] of 0.13 ± 0.02 %ID/g, a tissue uptake at 1 h [2, 14] of 0.03 ± 0.03 %ID/g and a tissue uptake at 24 h [2, 14] of 0.01 ± 0.01 %ID/g. For the same compound, the tissue uptake at 48 h [2, 14] was 0.01 ± 0.01 %ID/g, the tissue uptake at 72 h [2, 14] was 0.01 ± 0.01 %ID/g and the tissue uptake at 1 h [2, 15] was 4.1 ± 0.98 %ID/g. It also gave a tissue uptake at 24 h [2, 15] of 2.55 ± 0.52 %ID/g, a tissue uptake at 48 h [2, 15] of 1.84 ± 0.08 %ID/g and a tissue uptake at 72 h [2, 15] of 0.95 ± 0.13 %ID/g. It also gave a BxPC-3/kidney ratio (BxPC-3 (αvβ6 (+)) tumors [3]; 1 h p.i.) of 0.08±0.05, a BxPC-3/large intestine ratio (BxPC-3 (αvβ6 (+)) tumors [3]; 1 h p.i.) of 0.31±0.02 and a BxPC-3/stomach ratio (BxPC-3 (αvβ6 (+)) tumors [3]; 1 h p.i.) of 0.31±0.06. For the same compound, the “uptake Blood” value (BxPC-3 (αvβ6 (+)) tumors [3]; 1 h p.i.) was 0.10±0.02 % ID/g, the “uptake BxPC-3 tumor” value (BxPC-3 (αvβ6 (+)) tumors [3]; 1 h p.i.) was 1.23±0.19 % ID/g and the “uptake Kidneys” value (BxPC-3 (αvβ6 (+)) tumors [3]; 1 h p.i.) was 12.23±3.91 % ID/g. The “uptake Stomach” value (BxPC-3 (αvβ6 (+)) tumors [3]; 1 h p.i.) was 4.10±0.98 % ID/g, the “uptake Blood” value (BxPC-3 (αvβ6 (+)) tumors [3]; 24 h p.i.) was 0.00 ± 0.00 % ID/g and the “uptake Blood” value (BxPC-3 (αvβ6 (+)) tumors [3]; 48 h p.i.) was 0.00 ± 0.00 % ID/g. The BxPC-3/kidney ratio (BxPC-3 (αvβ6 (+)) tumors [3]; 72 h p.i.) was 0.14±0.05, the BxPC-3/large intestine ratio (BxPC-3 (αvβ6 (+)) tumors [3]; 72 h p.i.) was 1.74±0.39 and the BxPC-3/stomach ratio (BxPC-3 (αvβ6 (+)) tumors [3]; 72 h p.i.) was 0.87±0.28. For the same compound, the “uptake Blood” value (BxPC-3 (αvβ6 (+)) tumors [3]; 72 h p.i.) was 0.00 ± 0.00 % ID/g, the “uptake BxPC-3 tumor” value (BxPC-3 (αvβ6 (+)) tumors [3]; 72 h p.i.) was 0.81±0.16 % ID/g and the “uptake Kidneys” value (BxPC-3 (αvβ6 (+)) tumors [3]; 72 h p.i.) was 6.16±1.45 % ID/g. The “uptake Stomach” value (BxPC-3 (αvβ6 (+)) tumors [3]; 72 h p.i.) was 0.95±0.13 % ID/g, the detectability in blood (BxPC-3 (αvβ6 (+)) tumors [3]; later time points (after 1 h)) was “undetectable” and the tissue uptake at 1 h [4] was 0.3 ± 0.02 %ID/g. The “change of BxPC-3 tumor uptake by blocking (Δ)” value (BxPC-3 (αvβ6 (+)) tumors [5]) was −75%.
